Source: patent US20160287666A1 (priority 2015, published 2016)

Protein sequences, listed by entry. Tags and fused reporters are not part of them. Lines headed by an entry give the natural chain unless they say otherwise; changes in a name come on top.
UniProt Q15858: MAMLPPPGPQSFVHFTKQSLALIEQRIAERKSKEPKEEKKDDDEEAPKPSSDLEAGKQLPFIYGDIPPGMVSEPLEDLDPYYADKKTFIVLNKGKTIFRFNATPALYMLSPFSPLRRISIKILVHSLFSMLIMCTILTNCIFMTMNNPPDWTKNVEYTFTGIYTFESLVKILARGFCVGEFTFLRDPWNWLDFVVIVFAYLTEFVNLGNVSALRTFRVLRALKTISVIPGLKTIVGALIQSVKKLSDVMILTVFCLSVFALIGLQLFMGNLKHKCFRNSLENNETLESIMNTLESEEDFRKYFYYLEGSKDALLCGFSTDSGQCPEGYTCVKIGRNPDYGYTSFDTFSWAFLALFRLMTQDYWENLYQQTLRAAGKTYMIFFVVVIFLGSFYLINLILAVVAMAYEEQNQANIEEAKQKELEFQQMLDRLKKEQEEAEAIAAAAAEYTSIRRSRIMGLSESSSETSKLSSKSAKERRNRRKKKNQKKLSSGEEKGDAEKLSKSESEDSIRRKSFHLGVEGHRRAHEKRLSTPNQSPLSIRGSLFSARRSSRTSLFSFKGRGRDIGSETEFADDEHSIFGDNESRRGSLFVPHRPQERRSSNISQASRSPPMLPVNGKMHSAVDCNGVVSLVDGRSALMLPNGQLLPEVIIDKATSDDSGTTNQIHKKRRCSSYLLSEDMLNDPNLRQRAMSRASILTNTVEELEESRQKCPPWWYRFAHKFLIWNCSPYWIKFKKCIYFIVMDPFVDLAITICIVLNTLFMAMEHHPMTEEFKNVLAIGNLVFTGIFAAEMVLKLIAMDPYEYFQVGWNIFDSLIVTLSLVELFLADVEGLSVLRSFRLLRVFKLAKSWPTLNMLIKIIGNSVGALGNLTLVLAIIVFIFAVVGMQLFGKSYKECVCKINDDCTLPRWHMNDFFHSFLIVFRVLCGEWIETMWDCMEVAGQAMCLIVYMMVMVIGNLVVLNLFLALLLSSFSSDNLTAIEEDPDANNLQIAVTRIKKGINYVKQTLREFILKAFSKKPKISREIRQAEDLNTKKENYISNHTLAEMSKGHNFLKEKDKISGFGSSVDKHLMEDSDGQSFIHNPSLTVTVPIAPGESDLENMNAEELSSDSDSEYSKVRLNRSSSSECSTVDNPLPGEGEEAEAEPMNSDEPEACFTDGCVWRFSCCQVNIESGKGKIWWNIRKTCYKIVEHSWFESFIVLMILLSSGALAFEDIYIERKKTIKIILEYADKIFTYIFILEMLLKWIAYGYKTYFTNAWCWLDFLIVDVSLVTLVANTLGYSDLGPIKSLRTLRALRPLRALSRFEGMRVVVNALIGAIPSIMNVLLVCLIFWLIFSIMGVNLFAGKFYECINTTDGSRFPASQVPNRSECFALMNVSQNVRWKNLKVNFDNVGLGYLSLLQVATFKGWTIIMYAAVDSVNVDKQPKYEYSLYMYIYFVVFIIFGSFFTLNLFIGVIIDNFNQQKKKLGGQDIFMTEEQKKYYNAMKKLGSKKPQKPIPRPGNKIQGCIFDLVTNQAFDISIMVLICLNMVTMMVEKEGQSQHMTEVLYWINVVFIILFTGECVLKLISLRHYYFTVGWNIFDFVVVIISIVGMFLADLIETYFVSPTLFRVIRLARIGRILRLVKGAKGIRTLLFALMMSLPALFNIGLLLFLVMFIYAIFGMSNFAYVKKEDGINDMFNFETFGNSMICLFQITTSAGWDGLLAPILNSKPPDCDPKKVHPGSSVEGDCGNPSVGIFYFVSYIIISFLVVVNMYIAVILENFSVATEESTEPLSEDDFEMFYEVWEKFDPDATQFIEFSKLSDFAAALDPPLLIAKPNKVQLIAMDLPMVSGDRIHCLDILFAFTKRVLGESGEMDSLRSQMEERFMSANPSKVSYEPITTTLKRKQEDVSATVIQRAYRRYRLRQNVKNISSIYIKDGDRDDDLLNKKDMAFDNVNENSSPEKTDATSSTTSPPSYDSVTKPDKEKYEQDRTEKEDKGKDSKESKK

What follows are substances tested against human Nav1.7 (Homo sapiens, UniProt Q15858, W1161R). Conditions: read-out: Nav1.7 IC50.
Type: cell-based
Work on “GPAAAAAQCQKWMQTCDAERKCCEGFVCRLWCKKKLW-COOH [NV1D3249]” yielded an IC50 of 0.0241 µM.
With “GPAAAAAQCQKWMQTCDRERKCCEGFVCTLWCRKKLW-COOH [NV1D3788]” the IC50 was 0.0303 µM.
In the case of “GPACQKWMQTCDAERKCCEGFSCRLWCKKKLW-COOH [NV1D3579]”, the IC50 is reported as 0.0599 µM.
Substance “GPACQKWMQTCDAERKCCEGFVCTLWCKKKLW-COOH [NV1D3568]” has an IC50 of 0.044 µM.
For “GPACQKWMQTCDAKRKCCEGFSCTLWCRKKLW-COOH [NV1D3537]”, the IC50 was 0.0214 µM.
Substance “GPACQKWMQTCDAKRKCCEGFVCTLWCRKKLW-COOH [NV1D3532]” has an IC50 of 0.0173 µM.
“GPACQKWMQTCDANRKCCEGFSCRLWCKKKLW-COOH [NV1D3587]” was tested, and the IC50 was 0.0183 µM.
“GPACQKWMQTCDANRKCCEGFSCTLWCKKKLW-COOH [NV1D3561]” showed an IC50 of 0.0356 µM.
With “GPACQKWMQTCDANRKCCEGFVCTLWCKKKLW-COOH [NV1D3576]” the IC50 was 0.0267 µM.
Work on “GPACQKWMQTCDARRKCCEGFSCRLWCKKKLW-COOH [NV1D3583]” yielded an IC50 of 0.0131 µM.
Substance “GPACQKWMQTCDARRKCCEGFSCTLWCKKKLW-COOH [NV1D3565]” has an IC50 of 0.023 µM.
In the case of “GPACQKWMQTCDARRKCCEGFVCTLWCKKKLW-COOH [NV1D3572]”, the IC50 is reported as 0.0198 µM.
“GPACQKWMQTCDRERKCCEGFSCTLWCRKKLW-COOH [NV1D3554]” showed an IC50 of 0.0314 µM.
Substance “GPACQKWMQTCDRERKCCEGFVCTLWCRKKLW-COOH [NV1D3550]” has an IC50 of 0.0258 µM.
Substance “GPACQKWMQTCDRNRKCCEGFSCTLWCRKKLW-COOH [NV1D3546]” has an IC50 of 0.076 µM.
With “GPACQKWMQTCDRNRKCCEGFVCTLWCRKKLW-COOH [NV1D3541]” the IC50 was 0.0094 µM.
“GPACQKWMWTCDAERKCCEGMVCRLWCKKKLW-COOH [NV1D2674]” was tested, and the IC50 was 0.00403 µM.
“GPAPAPAPAPAPQCQKWMQTCDRERKCCEGFVCTLWCRKKLW-COOH [NV1D3819]” showed an IC50 of 0.056 µM.
Work on “GPAPAPAQCQKWMQTCDAERKCCEGFVCRLWCKKKLW-COOH [NV1D3251]” yielded an IC50 of 0.0561 µM.
In the case of “GPAPAPAQCQKWMQTCDRERKCCEGFVCTLWCRKKLW-COOH [NV1D3789]”, the IC50 is reported as 0.0299 µM.
Substance “GPDGPWRKMAPAPAPAPAPQCQKWMQTCDRERKCCEGFVCTLWCRKKLW-COOH [NV1D3804]” has an IC50 of 0.0536 µM.
For “GPDGPWRKMAPAPAQCQKWMQTCDRERKCCEGFVCTLWCRKKLW-COOH [NV1D3805]”, the IC50 was 0.0412 µM.
“GPDGPWRKMQCQKWMQTCDRERKCCEGFVCTLWCRKKLW-COOH [NV1D3806]” showed an IC50 of 0.0351 µM.
Work on “GPFGQKASSAPAPAQCQKWMQTCDRERKCCEGFVCTLWCRKKLW-COOH [NV1D3808]” yielded an IC50 of 0.057 µM.
For “GPFGQKASSQCQKWMQTCDRERKCCEGFVCTLWCRKKLW-COOH [NV1D3809]”, the IC50 was 0.0389 µM.
In the case of “GPQCAKWMQTCDRERKCCEGFVCTLWCRKKLW-COOH [NV1D3342]”, the IC50 is reported as 0.0128 µM.
“GPQCKKWMQTCDRERKCCEGFVCTLWCRKKLW-COOH [NV1D3340]” gave an IC50 of 0.0115 µM.
“GPQCQAWMQTCDRERKCCEGFVCTLWCRKKLW-COOH [NV1D3348]” was tested, and the IC50 was 0.0706 µM.
For “GPQCQDWMQTCDRERKCCEGFVCTLWCRKKLW-COOH [NV1D3349]”, the IC50 was 0.109 µM.
Work on “GPQCQEWMQTCDRERKCCEGFVCTLWCRKKLW-COOH [NV1D3350]” yielded an IC50 of 0.0856 µM.
With “GPQCQEWMQTCDRERKCCKGFVCTLWCRKKLW-COOH [NV1D3431]” the IC50 was 0.0686 µM.
For “GPQCQEWMQTCDRERKCCRGFVCTLWCRKKLW-COOH [NV1D3432]”, the IC50 was 0.0959 µM.
In the case of “GPQCQKFMQTCDRERKCCEGFVCTLWCRKKLW-COOH [NV1D3465]”, the IC50 is reported as 0.0528 µM.
“GPQCQKWMQDCDRERKCCEGFVCTLWCRKKLW-COOH [NV1D3356]” was tested, and the IC50 was 0.167 µM.
Work on “GPQCQKWMQECDRERKCCEGFVCTLWCRKKLW-COOH [NV1D3357]” yielded an IC50 of 0.111 µM.
“GPQCQKWMQKCDRERKCCEGFVCTLWCRKKLW-COOH [NV1D3354]” gave an IC50 of 0.0139 µM.
“GPQCQKWMQQCDRERKCCEGFVCTLWCRKKLW-COOH [NV1D3358]” gave an IC50 of 0.0205 µM.
“GPQCQKWMQRCDRERKCCEGFVCTLWCRKKLW-COOH [NV1D3353]” gave an IC50 of 0.0112 µM.

Same assay, conditions: read-out: hNav1.7 TETRA IC50
Work on “GPACQKWMQTCDAERKCCEGMVCRLWCKKKLW-COOH [NV1D2731]” yielded an IC50 of 0.0207 ± 0.0072 µM.
Work on “GPACQKWMQTCDSERKCCEGFVCRLWCKKKLW-COOH [NV1D2735]” yielded an IC50 of 0.06 ± 0.0162 µM.
“GPACQKWMQTCDSERKCCEGMVCRLWCKKKLW-COOH [NV1D2670]” gave an IC50 of 0.0222 ± 0.0033 µM.
